Experimental findings from US20040209315A1, “Methods to identify agents that increase or decrease UBP43 activity and methods for use of such agents” (priority 2003, published 2004) are described below.

What all share (type): cell-based, mice
In test [1] the test system is UBP43+/+ and UBP43−/− bone marrow cells. Put plainly: In vitro bone marrow cell colony forming unit (CFU) assay. The source says: (a) Hematopoietic cells transplanted from UBP43−/− mice to UBP43+/+ congenic strain mice are hypersensitive to poly(I—C) injection. Bone marrow cells (CD45.2+) from individual UBP43+/+ and UBP43−/− mice (n=4 for each group) were isolated and transplanted to lethally irradiated congenic strain mice (CD45.2−). Six months after the transplantation, flow cytometric analysis was done to determine the relative amount of peripheral blood cells contributed from the donor or recipient mice based on CD45-2 immunostaining before and after poly(I—C) injection (48 h). Flow cytometric analysis results from one representative mouse transplanted with UBP43+/+ or UBP43−/− bone marrow are presented. (b) UBP43−/− bone marrow cells are hypersensitive to IFNβ treatment. Bone marrow cells from UBP43+/+ and UBP43−/− mice were cultured at 2×10^4 cells/ml in CFU assay medium in the presence of various concentrations of IFNβ. Total colony number was counted after 12 days of culture. Results of a single representative experiment of two independent experiments are shown. Data points represent mean (±SD) colony growth derived from colony counts in three replicate plates for each mouse with two mice in each group. (c) Increased level of ISG15 conjugation in UBP43−/− bone marrow cells. Bone marrow cells were either left untreated or stimulated with 100 unit/ml IFNβ for 24 hours. Total proteins (15 μg) were resolved on 6-18% gradient SDS-PAGE and immunoblotted with anti-mouse ISG15 antibodies (Abs).
In vitro bone marrow cell culture. The colony forming unit (CFU) assay was performed as described previously in the presence of the indicated concentration of IFNβ (Calbiochem) (Rhoades, Hetherington, Harakawa, Yergeau, Zhou, Liu, Little, Tenen, and Zhang, 2000). Liquid culture of bone marrow cells was performed in RPMI 1640 with 10% fetal bovine serum, 10 ng/ml IL-3 (peprotech), 10 ng/ml IL-6 (Peprotech), and 100 ng/ml SCF (Peprotech) in the presence or absence of 100 unit/ml IFNβ, 10 ng/ml IFNγ. (Peprotech), or 10 ng/ml TNFα (Calbiochem).
Besides activating type I IFN production, poly(I—C) also activates other signaling pathways related to viral infection (Kaufinan, Proc. Natl. Acad. Sci., 96: 11693 (1999)). […] The CFU assay is commonly used to study defects of bone marrow cells in response to various cytokines and growth factors. Type I IFN is known to suppress bone marrow cell proliferation and colony formation (Broxmeyer et al., J. Immunol., 131: 1300 (1983)). […] Such a difference in colony formation indicated an abnormal sensitivity of UBP43 deficient cells to IFNβ. […] Furthermore, consistent with UBP43 enzymatic specificity, a higher level of protein ISGylation is detected in UBP43−/− bone marrow cells relative to UBP43+/+ bone marrow cells (FIG. 2c).

Test [2] shares this test system. Put plainly: TUNEL apoptosis assay on liquid bone marrow culture. The settings on record: 100 units/ml IFNβ, 48 hours. The method, then:
(§1) (a) Bone marrow cells isolated from UBP43+/+ and UBP43−/− mice were cultured in vitro in the presence or the absence of INFβ (100 units/ml) for 48 hours. TUNEL assay was performed to study the percentage of apoptosis cells. (b) 48 hours after UBP43−/− bone marrow cells were infected with UBP43-MigR1, they were cultured in the presence or the absence of IFNβ (100 units/ml) for 48 hours. The cells (15% EGFR+ and 85% EGFR−) were stained with Annexing V-PE and 7-AAD and analyzed by flow cytometry. (c) Bone marrow cells from UBP43± and UBP43−/− mice were cultured in the absence or presence of 10 ng/ml IFγ, 10 ng/ml TNFα, and 100 units/ml IFNβ for 48 hours. Cells were then subjected to Trypan blue dye exclusion assay. Each data point represents the mean of three independent experiments. Error bar represents standard deviation about the mean.
In vitro bone marrow cell culture. The colony forming unit (CFU) assay was performed as described previously in the presence of the indicated concentration of IFNβ (Calbiochem) (Rhoades, Hetherington, Harakawa, Yergeau, Zhou, Liu, Little, Tenen, and Zhang, 2000). […]
Apoptosis assay. […] A total of 200 cells were counted to determine the percentage of apoptotic cells. […]

The subject of test [3] is UBP43± and UBP43−/− bone marrow cells. Put plainly: Liquid bone marrow cell culture, Trypan blue dye exclusion assay. The settings on record: 100 units/ml IFNβ, 48 hours. The method, then: as §1
In vitro bone marrow cell culture. The colony forming unit (CFU) assay was performed as described previously in the presence of the indicated concentration of IFNβ (Calbiochem) (Rhoades, Hetherington, Harakawa, Yergeau, Zhou, Liu, Little, Tenen, and Zhang, 2000). Liquid culture of bone marrow cells was performed in RPMI 1640 with 10% fetal bovine serum, 10 ng/ml IL-3 (peprotech), 10 ng/ml IL-6 (Peprotech), and 100 ng/ml SCF (Peprotech) in the presence or absence of 100 unit/ml IFNβ, 10 ng/ml IFNγ. (Peprotech), or 10 ng/ml TNFα (Calbiochem). […]

The subject of test [4] is ISGF3 complex in UBP43+/+ and UBP43−/− bone marrow cells. Kind of test: Gel shift assay of ISGF3 DNA binding. The method, then:
(a) ISFG3-complex formation in UBP43 deficient cells upon IFNβ stimulation. UBP43+/+ and UBP43−/− bone marrow cells were either left untreated or stimulated for the time indicated. Total protein extracts (30 μg) were used in the gel shift assays with ^32P-labeled double stranded oligonucleotide that contains an ISGF3 binding site. (b) UBP43+/+ and UBP43−/− bone marrow cells were either left untreated or stimulated with 100 unit/ml IFNβ as described above. Total proteins (15 μg) were resolved on 7% SDS-PAGE and immunoblotted with anti-phospho-Stat1 (Tyr701) Abs. Blots were stripped and reprobed with anti-Stat1 Abs to assure equal loading. (c) Induction of ISGs in UBP43+/+ and UBP43−/− bone marrow cells. Northern blot analysis of ISG15, 2′-5′OAS and IRF7 gene expression was performed on total RNA isolated from UBP43+/+ and UBP43−/− bone marrow cells treated with 100 unit/ml of IFNβ for the time indicated.
Gel shift assay. Assays were performed as previously described (Malakhova et al., J. Biol. Chem., 277: 14703 (2002). Double stranded oligonucleotide from the ISG15 promoter that contains an ISGF3 binding site was used in the assay (Fu et al., Proc. Natl. Acad. Sci., 87: 8555 (1990).
JAK-STAT signaling is extensively activated in UBP43-null cells upon IFN stimulation. The molecular basis for the action of IFN has not been understood despite tremendous past efforts. […]
In general terms: Mobility shift assays separate free from complexed probe on a gel.

Some results are limits rather than exact numbers.

For IFNβ: type I interferon (Calbiochem), the “reduction in colony formation” value in test [1] (UBP43+/+ bone marrow cells, 1000 units/ml IFNβ) is 40%. In addition, the “reduction in colony number” value in test [1] (UBP43+/+ cells, similar CFU assays (50 units/ml IFNβ)) was less than 10%. In addition, the “reduction of bone marrow colony numbers” value in test [1] (UBP43−/− bone marrow cells, 50 units/ml IFNβ) was more than 80%. The colony formation entry in test [1] (UBP43−/− bone marrow cells, 1000 units/ml IFNβ) is “formed no colonies at all”. In addition, in test [2] (UBP43+/+ bone marrow cell culture), the “percentage of apoptotic cells (TUNEL)” value is “remained constant”. In addition, in test [2] (UBP43−/− bone marrow cells), the “number of apoptotic cells (TUNEL)” value is given as “significant increase”. The “apoptosis in UBP43−/− cells” value in test [3] is “substantial increase”. Moreover, the “time of stimulation by which ISGF3 DNA binding became undetectable” value in test [4] (UBP43+/+ cells, IFNβ stimulation) is not above 12 h. The “ISGF3 DNA binding at 48 hours” value in test [4] (UBP43−/− cells, IFNβ treated) is on record as “still detectable”.
